Data as given in publication PMC11157481, “Mechanochemical Synthesis of New Praziquantel Cocrystals: Solid-State Characterization and Solubility” (Crystal Growth & Design, 2024).

Assay: Equilibrium solubility by the shake-flask method with HPLC-UV analysis
Format: physicochemical
Details: for Increase in solubility in SIF compared to PZQ alone: 24 h, relative to pure PZQ; for [PZQ] in SCF attained in 24 hours: simulated colonic fluid pH 7.8, 37 °C; for [PZQ] in SCF attained in 24 hours / [PZQ] in SGF attained in 24 hours / [PZQ] in SIF attained in 24 hours / [PZQ] in H2O attained in 24 hours: shake-flask, n = 3; for [PZQ] in SGF attained in 24 hours: simulated gastric fluid pH 1.5, 37 °C; for [PZQ] in SIF attained in 24 hours: simulated intestinal fluid pH 7.4, 37 °C; for [PZQ] in H2O attained in 24 hours: ultrapure water, 37 °C
Method: The stock solution of PZQ (2 mg/mL) was prepared by dissolving the pure compound in MeCN. Corresponding aliquots were diluted with the same solvent for the preparation of working PZQ solutions. Samples of 10 μL were injected into the chromatographic system. […] Ultrapure water was used as the reference dissolution medium. The solubility of the obtained PZQ cocrystals was determined by the shake-flask method. Briefly, excess PZQ and PZQ cocrystals (the corresponding amount of 6 mg of PZQ) were added to 2 mL vials containing 2 mL of the dissolution medium. The slurry samples were placed in an orbital shaker to achieve uniform mixing at 37 °C for 24 h. At different time intervals (10, 20, 30, 40, 50, 60, and 90 min), an aliquot of 200 μL of each sample was collected after centrifugation, filtered, and analyzed concerning the PZQ content by HPLC-UV analysis.
The solubilities of each cocrystal and PZQ were tested in ultrapure water and the three dissolution media, simulating the biorelevant fluids present along the entire gastrointestinal tract, namely, SGF (simulated gastric fluid), SIF (simulated intestinal fluid), and SCF (simulated colonic fluid).

Substance	Increase in solubility in SIF compared to PZQ alone [fold]	[PZQ] in SCF attained in 24 hours [µg/mL]	[PZQ] in SGF attained in 24 hours [µg/mL]	[PZQ] in SIF attained in 24 hours [µg/mL]	[PZQ] in H2O attained in 24 hours [µg/mL]
PZQ – SUBERIC ACID (SUB) [Co-Crystal 11]	1.18	250.99	278.27	226.99	271.99
PZQ – BENZENE-1,2,4,5-TETRACARBOXYLIC ACID (BTC) [Co-Crystal 10]	1.65	260.75	217.19	317.60	354.90
